Article PMC8547461, “An Intracellular Sensing and Signal Transduction System That Regulates the Metabolism of Polycyclic Aromatic Hydrocarbons in Bacteria” (mSystems, 2021)

Test system: DPR-1^L93A/D94A/T101A/L102A
Assay: SPR binding of c-di-GMP to mutated DPR-1
Design: species or system Cycloclasticus sp. strain P1
Conditions: quadruple mutated DPR-1

Nc1nc2c(ncn2C2OC3COP(=O)(O)OC4C(COP(=O)(O)OC3C2O)OC(n2cnc3c(=O)[nH]c(N)nc32)C4O)c(=O)[nH]1 (stereo not shown) [c-di-GMP, cyclic dimeric GMP]
Ka: 4.33e3 M^-1S^-1
